What was measured:
CRBN = CRBN (Homo sapiens, UniProt Q96SW2); experiment: CRBN binding affinity by HTRF (CEREBLON BINDING kit); settings: for Inhibition Rate at 0.5 µM (%) / Inhibition Rate at 2 µM (%): CRBN binding, HTRF; for Inhibition Rate at 0.5 µM (%): compound at 0.5 µM; for Inhibition Rate at 2 µM (%): compound at 2 µM; for IC50: read-out: HTRF IC50, human Cereblon WT GST-tagged protein, 3 hours at room temperature
TNF-α = experiment: Inflammatory cytokine release from PBMCs induced by PHA (flow cytometry CBA); settings: PHA 1 µg/mL, 24 h
[1] = tested on: Human multiple myeloma cell (MM.1S); experiment: Tumor cell proliferation inhibition (cell viability assay); settings: MM.1S cells, 96 hours; for IC50: read-out: Inhibitory activity against tumor cells proliferation (IC50, nM) MM.1S
IL-2 = experiment: Inflammatory cytokine release from PBMCs induced by PHA (flow cytometry CBA); settings: PBMCs, PHA 1 µg/mL, 24 h
CK1α = CK1α (Homo sapiens, UniProt P48729+Q96SW2); experiment: Western blot assay of substrate protein degradation in hPBMCs; settings: 24 hours treatment, compounds at 50 nM and 500 nM (concentration behind the class not stated)
IKZF2 = IKZF2 (Homo sapiens, UniProt Q96SW2+Q9UKS7); experiment: as above; settings: 24 hours treatment, compounds at 50 nM and 500 nM (concentration behind the class not stated)
WEE1 = WEE1 (Homo sapiens, UniProt P30291+Q96SW2); experiment: as above; settings: 24 hours treatment, compounds at 50 nM and 500 nM (concentration behind the class not stated)
GSPT1 = GSPT1 (Homo sapiens, UniProt P15170+Q96SW2); experiment: as above; settings: 24 hours treatment, compounds at 50 nM and 500 nM (concentration behind the class not stated)
IKZF1 = IKZF1 (Homo sapiens, UniProt Q13422+Q96SW2); experiment: as above; settings: 24 hours treatment, compounds at 50 nM and 500 nM (concentration behind the class not stated)
IKZF3 = IKZF3 (Homo sapiens, UniProt Q96SW2+Q9UKT9); experiment: as above; settings: 24 hours treatment, compounds at 50 nM and 500 nM (concentration behind the class not stated)
[2] = tested on: Human myeloid monocytic leukemia cell (MV-4-11); experiment: Tumor cell proliferation inhibition (cell viability assay); settings: MV-4-11 cells, 96 hours

Chains of the proteins cited; added tags and fusions are not shown.
UniProt Q96SW2, whole entry: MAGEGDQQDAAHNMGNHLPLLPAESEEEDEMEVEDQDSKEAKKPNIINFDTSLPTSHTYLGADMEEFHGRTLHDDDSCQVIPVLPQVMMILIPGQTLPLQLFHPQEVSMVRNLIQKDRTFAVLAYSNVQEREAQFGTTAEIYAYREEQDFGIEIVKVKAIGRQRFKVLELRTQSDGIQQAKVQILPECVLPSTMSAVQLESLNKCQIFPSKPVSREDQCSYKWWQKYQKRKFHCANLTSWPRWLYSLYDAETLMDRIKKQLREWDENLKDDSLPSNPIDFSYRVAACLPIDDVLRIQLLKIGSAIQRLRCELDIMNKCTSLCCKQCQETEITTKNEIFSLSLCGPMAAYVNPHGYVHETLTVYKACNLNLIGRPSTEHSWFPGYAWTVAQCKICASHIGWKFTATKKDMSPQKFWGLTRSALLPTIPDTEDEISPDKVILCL
UniProt P48729, whole entry: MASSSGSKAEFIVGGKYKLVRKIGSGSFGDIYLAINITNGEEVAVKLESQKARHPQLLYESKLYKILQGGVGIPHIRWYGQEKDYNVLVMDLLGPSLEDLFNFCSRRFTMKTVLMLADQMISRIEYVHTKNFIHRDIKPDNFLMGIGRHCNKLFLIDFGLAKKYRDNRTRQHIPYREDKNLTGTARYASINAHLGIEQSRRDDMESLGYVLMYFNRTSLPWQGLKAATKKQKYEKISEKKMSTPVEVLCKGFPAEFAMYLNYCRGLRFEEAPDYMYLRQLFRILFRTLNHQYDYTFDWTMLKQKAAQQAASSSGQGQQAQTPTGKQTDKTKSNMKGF
UniProt Q9UKS7, whole entry: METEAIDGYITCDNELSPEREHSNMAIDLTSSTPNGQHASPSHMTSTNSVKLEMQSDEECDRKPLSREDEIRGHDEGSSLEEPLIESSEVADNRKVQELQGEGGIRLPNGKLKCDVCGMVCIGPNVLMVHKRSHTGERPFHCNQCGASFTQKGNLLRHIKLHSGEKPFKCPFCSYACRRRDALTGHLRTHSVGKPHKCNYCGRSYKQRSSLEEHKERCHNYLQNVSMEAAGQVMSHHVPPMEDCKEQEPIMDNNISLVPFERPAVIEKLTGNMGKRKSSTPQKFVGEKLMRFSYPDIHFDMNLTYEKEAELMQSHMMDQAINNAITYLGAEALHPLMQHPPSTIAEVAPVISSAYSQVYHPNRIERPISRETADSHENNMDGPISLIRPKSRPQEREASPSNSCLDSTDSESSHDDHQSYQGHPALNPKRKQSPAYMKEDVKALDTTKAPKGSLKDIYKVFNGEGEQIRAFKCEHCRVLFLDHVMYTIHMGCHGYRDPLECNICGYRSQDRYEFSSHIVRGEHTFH
UniProt P30291, whole entry: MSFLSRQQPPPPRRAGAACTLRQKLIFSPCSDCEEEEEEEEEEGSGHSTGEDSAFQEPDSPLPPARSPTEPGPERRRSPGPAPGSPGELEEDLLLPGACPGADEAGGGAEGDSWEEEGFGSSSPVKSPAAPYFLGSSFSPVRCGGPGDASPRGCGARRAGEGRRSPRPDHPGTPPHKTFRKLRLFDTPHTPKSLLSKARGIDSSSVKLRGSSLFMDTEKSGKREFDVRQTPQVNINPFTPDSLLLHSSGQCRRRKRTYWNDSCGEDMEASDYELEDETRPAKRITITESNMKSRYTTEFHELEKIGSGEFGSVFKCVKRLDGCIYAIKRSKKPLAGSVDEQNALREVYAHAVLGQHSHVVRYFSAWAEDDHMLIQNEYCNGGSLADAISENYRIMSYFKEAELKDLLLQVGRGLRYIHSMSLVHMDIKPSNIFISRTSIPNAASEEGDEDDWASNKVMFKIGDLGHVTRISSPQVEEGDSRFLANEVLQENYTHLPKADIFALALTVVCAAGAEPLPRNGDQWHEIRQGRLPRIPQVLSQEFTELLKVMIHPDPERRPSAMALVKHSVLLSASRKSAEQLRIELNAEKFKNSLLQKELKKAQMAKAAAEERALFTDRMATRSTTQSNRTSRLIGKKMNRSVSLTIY
UniProt P15170, whole entry: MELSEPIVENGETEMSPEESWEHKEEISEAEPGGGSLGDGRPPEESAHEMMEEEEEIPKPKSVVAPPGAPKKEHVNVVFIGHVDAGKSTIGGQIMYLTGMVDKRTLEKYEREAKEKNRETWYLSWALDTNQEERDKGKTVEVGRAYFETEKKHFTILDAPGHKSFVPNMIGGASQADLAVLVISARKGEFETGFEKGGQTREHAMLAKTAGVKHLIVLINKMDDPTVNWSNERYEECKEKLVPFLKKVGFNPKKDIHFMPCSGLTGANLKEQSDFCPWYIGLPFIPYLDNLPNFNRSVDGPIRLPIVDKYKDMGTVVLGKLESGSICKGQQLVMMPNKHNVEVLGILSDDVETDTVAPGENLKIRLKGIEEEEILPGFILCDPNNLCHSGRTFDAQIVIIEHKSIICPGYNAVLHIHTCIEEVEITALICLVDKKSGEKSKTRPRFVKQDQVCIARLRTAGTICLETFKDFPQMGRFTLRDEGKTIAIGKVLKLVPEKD
UniProt Q13422, whole entry: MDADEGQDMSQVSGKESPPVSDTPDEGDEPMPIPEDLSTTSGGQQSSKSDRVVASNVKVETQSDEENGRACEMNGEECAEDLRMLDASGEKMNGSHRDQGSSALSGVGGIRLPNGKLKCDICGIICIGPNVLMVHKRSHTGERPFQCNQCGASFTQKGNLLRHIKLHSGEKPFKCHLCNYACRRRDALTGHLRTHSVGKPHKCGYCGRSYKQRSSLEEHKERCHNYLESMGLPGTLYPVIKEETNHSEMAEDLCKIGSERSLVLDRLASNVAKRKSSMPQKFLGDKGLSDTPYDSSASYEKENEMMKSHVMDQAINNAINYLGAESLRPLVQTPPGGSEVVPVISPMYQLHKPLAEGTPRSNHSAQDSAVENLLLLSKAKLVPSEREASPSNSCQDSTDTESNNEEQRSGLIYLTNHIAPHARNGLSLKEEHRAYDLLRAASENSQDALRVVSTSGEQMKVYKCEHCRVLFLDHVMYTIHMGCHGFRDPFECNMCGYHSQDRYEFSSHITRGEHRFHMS
UniProt Q9UKT9, whole entry: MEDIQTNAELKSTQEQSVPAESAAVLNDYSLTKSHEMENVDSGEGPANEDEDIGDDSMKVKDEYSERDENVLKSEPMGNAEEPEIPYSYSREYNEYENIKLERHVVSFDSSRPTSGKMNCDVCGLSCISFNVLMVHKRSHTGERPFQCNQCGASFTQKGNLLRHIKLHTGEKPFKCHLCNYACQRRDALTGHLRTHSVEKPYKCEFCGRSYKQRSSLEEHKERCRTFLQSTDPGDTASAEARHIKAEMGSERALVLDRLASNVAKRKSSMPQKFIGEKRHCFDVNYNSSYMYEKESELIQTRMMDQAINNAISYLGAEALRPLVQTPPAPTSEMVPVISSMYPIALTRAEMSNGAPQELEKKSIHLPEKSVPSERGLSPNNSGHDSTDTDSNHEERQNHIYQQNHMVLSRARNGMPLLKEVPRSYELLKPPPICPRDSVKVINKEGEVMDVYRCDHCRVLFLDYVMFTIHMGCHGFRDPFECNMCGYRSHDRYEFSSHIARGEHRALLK
UniProt Q16531, whole entry partner: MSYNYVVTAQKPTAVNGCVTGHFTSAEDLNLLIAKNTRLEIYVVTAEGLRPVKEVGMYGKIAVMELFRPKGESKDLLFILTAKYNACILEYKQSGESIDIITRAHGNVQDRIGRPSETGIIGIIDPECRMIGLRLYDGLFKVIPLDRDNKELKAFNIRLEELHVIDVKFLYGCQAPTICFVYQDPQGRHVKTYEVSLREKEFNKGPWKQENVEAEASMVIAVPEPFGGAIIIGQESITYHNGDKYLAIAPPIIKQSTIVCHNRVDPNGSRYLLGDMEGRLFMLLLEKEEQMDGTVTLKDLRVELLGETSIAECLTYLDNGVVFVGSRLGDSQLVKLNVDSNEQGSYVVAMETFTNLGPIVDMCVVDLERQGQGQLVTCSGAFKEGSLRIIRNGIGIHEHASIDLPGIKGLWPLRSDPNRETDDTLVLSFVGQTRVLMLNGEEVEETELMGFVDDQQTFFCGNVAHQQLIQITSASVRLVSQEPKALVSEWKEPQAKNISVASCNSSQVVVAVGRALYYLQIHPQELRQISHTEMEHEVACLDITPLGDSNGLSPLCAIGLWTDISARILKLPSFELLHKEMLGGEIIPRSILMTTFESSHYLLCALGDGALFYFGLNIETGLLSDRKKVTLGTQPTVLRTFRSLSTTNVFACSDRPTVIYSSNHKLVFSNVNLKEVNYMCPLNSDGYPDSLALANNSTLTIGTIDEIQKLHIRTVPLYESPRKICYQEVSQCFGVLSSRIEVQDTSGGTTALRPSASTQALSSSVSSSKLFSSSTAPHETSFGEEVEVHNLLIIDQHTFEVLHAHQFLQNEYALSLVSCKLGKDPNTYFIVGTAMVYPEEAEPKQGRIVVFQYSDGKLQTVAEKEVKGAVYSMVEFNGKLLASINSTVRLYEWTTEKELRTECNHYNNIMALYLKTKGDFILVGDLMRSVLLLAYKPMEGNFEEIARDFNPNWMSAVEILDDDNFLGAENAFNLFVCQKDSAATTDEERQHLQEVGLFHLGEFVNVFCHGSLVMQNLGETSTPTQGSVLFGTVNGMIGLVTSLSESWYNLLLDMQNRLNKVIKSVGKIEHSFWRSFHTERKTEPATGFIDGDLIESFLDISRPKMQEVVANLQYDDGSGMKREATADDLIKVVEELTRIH

Row | Compound | Inhibition Rate at 0.5 µM (%) (CRBN) | Inhibition Rate at 2 µM (%) (CRBN) | IC50 (CRBN) [nM] | IC50 [1] [nM] | Inhibition Rate (%) TNF-α (TNF-α; 0.1 µM) | Inhibition Rate at 10 nM (%) [1] | Inhibition Rate at 500 nM (%) [1] | Inhibition Rate (%) IL-2 (IL-2; 0.1 µM) | Inhibition Rate (%) IL-2 (IL-2; 1 µM) | Inhibition Rate (%) TNF-α (TNF-α; 1 µM) | substrate protein remaining % (CK1a) (CK1α) | substrate protein remaining % (IKZF2) (IKZF2) | substrate protein remaining % (WEE1) (WEE1) | substrate protein remaining % (GSPT1) (GSPT1) | substrate protein remaining % (IKZF 1) (IKZF1) | substrate protein remaining % (IKZF3) (IKZF3) | Inhibition Rate at 10 nM (%) [2] | Inhibition Rate at 500 nM (%) [2]
1 | O=C1CCC(N2Cc3cc(CCCN4CCC(N5CCN(c6noc7cc(F)ccc67)CC5)CC4)ccc3C2=O)C(=O)N1 (stereo not drawn) | a7 (70% < a7 ≤80%) | a8 (80% < a8 ≤100%) | – | – | IV9 (40% < IV9 ≤ 50%) | – | – | – | – | – | – | – | – | – | – | – | – | –
2 | O=C1CCC(N2Cc3cccc(CN4CCC(N5CCN(c6noc7cc(F)ccc67)CC5)CC4)c3C2=O)C(=O)N1 (stereo not drawn) | – | – | – | – | – | 1b10 (80% ≤ 1b10 ≤ 100%) | 1b10 (80% ≤ 1b10 ≤ 100%) | IV9 (40% < IV9 ≤ 50%) | IV8 (30% < IV8 ≤ 40%) | – | – | – | – | – | – | – | – | –
3 | O=C1CCN(N2C(=O)c3ccc(CN4CCC(N5CCN(C(c6ccccc6)c6ccccc6)CC5)CC4)cc3C2=O)C(=O)N1 | – | – | – | – | IV10 (50% < IV 10 ≤ 60%) | – | – | IV11 (60% < IV11 ≤ 70%) | – | IV7 (20% < IV7 ≤ 30%) | – | – | – | – | – | – | – | –
4 | O=C1CCC(N2Cc3cc(CCN4CCC(N5CCN(c6cccc(Cl)c6Cl)CC5)CC4)ccc3C2=O)C(=O)N1 (stereo not drawn) | a8 (80% < a8 ≤100%) | a8 (80% < a8 ≤100%) | – | – | IV9 (40% < IV9 ≤ 50%) | – | – | – | – | IV9 (40% < IV9 ≤ 50%) | B (80%< substrate protein remaining %≤ 100%) | B (80%< substrate protein remaining %≤ 100%) | B (80%< substrate protein remaining %≤ 100%) | A (0% ≤ substrate protein remaining % ≤ 80%) | B (80%< substrate protein remaining %≤ 100%) | B (80%< substrate protein remaining %≤ 100%) | – | –
5 | O=C1CCC(N2Cc3cc(CCCN4CCC(N5CCN(c6cccc(Cl)c6Cl)CC5)CC4)ccc3C2=O)C(=O)N1 (stereo not drawn) | a6 (60% < a6 ≤ 70%) | a8 (80% < a8 ≤100%) | – | – | IV9 (40% < IV9 ≤ 50%) | – | – | – | – | – | B (80%< substrate protein remaining %≤ 100%) | A (0% ≤ substrate protein remaining % ≤ 80%) | A (0% ≤ substrate protein remaining % ≤ 80%) | A (0% ≤ substrate protein remaining % ≤ 80%) | A (0% ≤ substrate protein remaining % ≤ 80%) | A (0% ≤ substrate protein remaining % ≤ 80%) | – | –
6 | O=C1CCC(N2Cc3c(CN4CCC(N5CCC(c6noc7cc(F)ccc67)CC5)C(F)(F)C4)cccc3C2=O)C(=O)N1 (stereo not drawn) | – | – | – | – | – | 1b5 (32% ≤ 1b5 < 42%) | 1b8 (60% ≤ 1b8 < 70%) | – | – | – | A (0% ≤ substrate protein remaining % ≤ 80%) | A (0% ≤ substrate protein remaining % ≤ 80%) | A (0% ≤ substrate protein remaining % ≤ 80%) | A (0% ≤ substrate protein remaining % ≤ 80%) | A (0% ≤ substrate protein remaining % ≤ 80%) | A (0% ≤ substrate protein remaining % ≤ 80%) | 1a4 (20% ≤ 1a4 < 30%) | 1a8 (60% ≤ 1a8 < 70%)
7 | O=C1CCC(N2Cc3c(ccc(CN4CCC(N5CCN(c6noc7cc(F)ccc67)CC5)CC4)c3F)C2=O)C(=O)N1 (stereo not drawn) | a4 (40% < a4 ≤ 53%) | a7 (70% < a7 ≤80%) | – | – | IV9 (40% < IV9 ≤ 50%) | – | – | – | – | IV9 (40% < IV9 ≤ 50%) | – | – | – | – | – | – | – | –

The next lines start with results.

Row | Inhibition Rate at 0.5 µM (%) (CRBN) | Inhibition Rate at 2 µM (%) (CRBN) | IC50 (CRBN) [nM] | IC50 [1] [nM] | Compound | Inhibition Rate (%) TNF-α (TNF-α; 0.1 µM) | Inhibition Rate at 10 nM (%) [1] | Inhibition Rate at 500 nM (%) [1] | Inhibition Rate (%) IL-2 (IL-2; 0.1 µM) | Inhibition Rate (%) IL-2 (IL-2; 1 µM) | Inhibition Rate (%) TNF-α (TNF-α; 1 µM) | substrate protein remaining % (CK1a) (CK1α) | substrate protein remaining % (IKZF2) (IKZF2) | substrate protein remaining % (WEE1) (WEE1) | substrate protein remaining % (GSPT1) (GSPT1) | substrate protein remaining % (IKZF 1) (IKZF1) | substrate protein remaining % (IKZF3) (IKZF3) | Inhibition Rate at 10 nM (%) [2] | Inhibition Rate at 500 nM (%) [2]
8 | a5 (53% < a5 ≤ 60%) | a8 (80% < a8 ≤100%) | – | – | O=C1CCC(N2Cc3cc(CN4CCC(N5CCN(c6noc7cc(F)ccc67)CC5)C(F)(F)C4)cc(F)c3C2=O)C(=O)N1 (stereo not drawn) | – | 1b4 (20% ≤ 1b4 < 32%) | 1b9 (70% ≤ 1b9 < 80%) | – | – | – | A (0% ≤ substrate protein remaining % ≤ 80%) | B (80%< substrate protein remaining %≤ 100%) | A (0% ≤ substrate protein remaining % ≤ 80%) | A (0% ≤ substrate protein remaining % ≤ 80%) | B (80%< substrate protein remaining %≤ 100%) | A (0% ≤ substrate protein remaining % ≤ 80%) | – | –
9 | a2 (20% < a2 ≤ 30%) | a5 (53% < a5 ≤ 60%) | – | – | O=C1CCC(N2Cc3ccc(CN4CCC(N5CCN(c6noc7cc(F)ccc67)CC5)CC4)cc3C2=O)C(=O)N1 (stereo not drawn) | – | 1b10 (80% ≤ 1b10 ≤ 100%) | 1b10 (80% ≤ 1b10 ≤ 100%) | – | – | – | – | – | – | – | – | – | 1a6 (40% < 1a6 < 50%) | 1a7 (50% ≤ 1a7 < 60%)
10 | a5 (53% < a5 ≤ 60%) | a6 (60% < a6 ≤ 70%) | – | – | O=C1CCC(N2Cc3c(ccc(CN4CCC(N5CCN(c6noc7cc(F)ccc67)CC5)C(F)(F)C4)c3F)C2=O)C(=O)N1 (stereo not drawn) | – | 1b5 (32% ≤ 1b5 < 42%) | 1b8 (60% ≤ 1b8 < 70%) | – | – | – | A (0% ≤ substrate protein remaining % ≤ 80%) | A (0% ≤ substrate protein remaining % ≤ 80%) | A (0% ≤ substrate protein remaining % ≤ 80%) | A (0% ≤ substrate protein remaining % ≤ 80%) | A (0% ≤ substrate protein remaining % ≤ 80%) | A (0% ≤ substrate protein remaining % ≤ 80%) | – | –
11 | – | – | 100 to 500 | 100 to 200 | O=C1CCC(N2Cc3cc(CN4CCC(N5CCN(c6noc7cc(F)ccc67)CC5)C(F)(F)C4)ccc3C2=O)C(=O)N1 (stereo not drawn) | – | – | – | – | – | – | B (80%< substrate protein remaining %≤ 100%) | B (80%< substrate protein remaining %≤ 100%) | B (80%< substrate protein remaining %≤ 100%) | A (0% ≤ substrate protein remaining % ≤ 80%) | B (80%< substrate protein remaining %≤ 100%) | A (0% ≤ substrate protein remaining % ≤ 80%) | – | –
12 | a5 (53% < a5 ≤ 60%) | a8 (80% < a8 ≤100%) | – | – | CC1(C)CCC(C(=O)N2CCN(C3CCN(C(=O)c4cc5c(cc4F)C(=O)N(C4CCC(=O)NC4=O)C5)CC3(F)F)CC2)=C(c2ccc(Cl)cc2)C1 (stereo not drawn) | IV5 (0% < IV5 ≤ 10%) | – | – | – | – | – | – | – | – | – | – | – | – | –
13 | – | – | 100 to 500 | 10 to 20 | O=C1CCC(N2Cc3cc(CN4CCC(N5CCC(c6noc7cc(F)ccc67)CC5)C(F)(F)C4)ccc3C2=O)C(=O)N1 (stereo not drawn) | – | – | – | – | – | – | B (80%< substrate protein remaining %≤ 100%) | A (0% ≤ substrate protein remaining % ≤ 80%) | A (0% ≤ substrate protein remaining % ≤ 80%) | A (0% ≤ substrate protein remaining % ≤ 80%) | A (0% ≤ substrate protein remaining % ≤ 80%) | A (0% ≤ substrate protein remaining % ≤ 80%) | – | –
14 | a4 (40% < a4 ≤ 53%) | a8 (80% < a8 ≤100%) | – | – | O=C1CCC(N2Cc3cc(CN4CCC(N5CCN(c6cccc(Cl)c6Cl)CC5)C(F)(F)C4)ccc3C2=S)C(=O)N1 (stereo not drawn) | – | 1b6 (42% ≤ 1b6 < 50%) | 1b7 (50% ≤ 1b7 < 60%) | – | – | – | B (80%< substrate protein remaining %≤ 100%) | B (80%< substrate protein remaining %≤ 100%) | A (0% ≤ substrate protein remaining % ≤ 80%) | A (0% ≤ substrate protein remaining % ≤ 80%) | A (0% ≤ substrate protein remaining % ≤ 80%) | B (80%< substrate protein remaining %≤ 100%) | – | –
15 | a4 (40% < a4 ≤ 53%) | a7 (70% < a7 ≤80%) | – | – | O=C1CCC(N2Cc3ccc(CN4CCC(N5CCN(c6noc7cc(F)ccc67)CC5)C(F)(F)C4)cc3C2=S)C(=O)N1 (stereo not drawn) | – | 1b5 (32% ≤ 1b5 < 42%) | 1b7 (50% ≤ 1b7 < 60%) | – | – | – | B (80%< substrate protein remaining %≤ 100%) | B (80%< substrate protein remaining %≤ 100%) | B (80%< substrate protein remaining %≤ 100%) | A (0% ≤ substrate protein remaining % ≤ 80%) | B (80%< substrate protein remaining %≤ 100%) | B (80%< substrate protein remaining %≤ 100%) | – | –
